Patent US8846929B2, “Substituted-quinoxaline-type piperidine compounds and the uses thereof” (priority 2007, dated 2014)

Sequences of proteins named here, by UniProt entry; tags and fusion partners are left off. A change or cut given only in a name is not applied to a line headed by its entry.
UniProt P35372: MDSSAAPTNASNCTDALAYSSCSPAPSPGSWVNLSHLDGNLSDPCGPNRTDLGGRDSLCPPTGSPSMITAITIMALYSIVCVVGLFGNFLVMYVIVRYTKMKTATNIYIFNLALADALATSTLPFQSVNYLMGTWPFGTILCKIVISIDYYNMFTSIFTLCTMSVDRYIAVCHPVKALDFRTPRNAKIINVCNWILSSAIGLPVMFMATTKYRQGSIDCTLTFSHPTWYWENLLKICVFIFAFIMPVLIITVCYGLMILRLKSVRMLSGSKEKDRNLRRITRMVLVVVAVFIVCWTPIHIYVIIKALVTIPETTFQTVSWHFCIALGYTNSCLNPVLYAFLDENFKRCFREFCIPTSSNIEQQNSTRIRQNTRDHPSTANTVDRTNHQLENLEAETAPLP
UniProt P41145: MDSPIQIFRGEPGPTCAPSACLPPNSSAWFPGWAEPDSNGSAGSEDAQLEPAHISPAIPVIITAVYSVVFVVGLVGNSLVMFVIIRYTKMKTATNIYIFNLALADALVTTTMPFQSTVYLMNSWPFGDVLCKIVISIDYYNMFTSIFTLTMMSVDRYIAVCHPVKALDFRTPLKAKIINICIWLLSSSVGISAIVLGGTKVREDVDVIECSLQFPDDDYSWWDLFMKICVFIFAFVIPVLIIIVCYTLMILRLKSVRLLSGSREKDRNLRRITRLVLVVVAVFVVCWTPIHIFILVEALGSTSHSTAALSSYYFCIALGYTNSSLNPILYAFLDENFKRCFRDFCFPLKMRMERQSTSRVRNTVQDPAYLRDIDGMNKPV
UniProt P41146: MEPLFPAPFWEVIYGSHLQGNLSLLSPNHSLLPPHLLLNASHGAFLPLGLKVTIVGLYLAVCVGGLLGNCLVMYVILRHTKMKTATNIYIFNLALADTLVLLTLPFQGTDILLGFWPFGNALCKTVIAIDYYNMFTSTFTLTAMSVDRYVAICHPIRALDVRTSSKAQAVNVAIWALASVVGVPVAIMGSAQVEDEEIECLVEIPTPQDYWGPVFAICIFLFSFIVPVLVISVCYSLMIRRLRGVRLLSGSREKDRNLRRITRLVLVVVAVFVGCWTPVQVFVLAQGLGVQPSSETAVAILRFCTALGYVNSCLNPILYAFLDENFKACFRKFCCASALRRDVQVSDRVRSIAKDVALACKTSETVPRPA
UniProt P41143: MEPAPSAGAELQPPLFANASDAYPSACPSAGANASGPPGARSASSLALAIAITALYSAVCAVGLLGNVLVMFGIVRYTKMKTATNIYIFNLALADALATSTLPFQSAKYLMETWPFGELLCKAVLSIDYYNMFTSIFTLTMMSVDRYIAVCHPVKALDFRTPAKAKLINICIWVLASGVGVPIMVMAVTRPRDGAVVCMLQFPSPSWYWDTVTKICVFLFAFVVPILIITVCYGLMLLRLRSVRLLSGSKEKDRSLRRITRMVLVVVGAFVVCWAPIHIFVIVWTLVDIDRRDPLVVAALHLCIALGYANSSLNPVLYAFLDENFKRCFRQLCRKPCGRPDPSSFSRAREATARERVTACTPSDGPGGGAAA

Columns and labels:
μ-opioid receptor [1] = target: T1, μ-opioid receptor (Homo sapiens (Human), UniProt P35372); assay: In vitro mu-opioid receptor [35S]GTPγS functional assay; conditions: mean ± SEM; for EC50: read-out: GTPγS Opioid Receptor Mu EC50
kappa opioid receptor [2] = target: T2, kappa opioid receptor (Homo sapiens (Human), UniProt P41145); assay: In vitro kappa-opioid receptor binding assay ([3H]-U69,593 displacement); conditions: read-out: Ki [Average ± Std Deviation] Opioid Receptor Kappa; membranes from recombinant HEK-293 cells
μ-opioid receptor [3] = target: T1, μ-opioid receptor; assay: In vitro mu-opioid receptor binding assay ([3H]-diprenorphine displacement); conditions: read-out: Ki [Average ± Std Deviation] Opioid Receptor Mu
[4] = target: T3, human opioid receptor-like (ORL-1) (Homo sapiens (Human), UniProt P41146); assay: In vitro ORL-1 receptor [35S]GTPγS functional assay; type: biochemical; conditions: mean ± SEM; for EC50: read-out: GTPγS ORL-1 EC50
[5] = target: T3, human opioid receptor-like (ORL-1); assay: In vitro ORL-1 receptor binding assay ([3H]-nociceptin displacement); conditions: read-out: Ki [Average ± Std Deviation] ORL-1; membranes from recombinant HEK-293 cells
delta opioid receptor = delta opioid receptor (Homo sapiens (Human), UniProt P41143); assay: In vitro delta-opioid receptor binding assay ([3H]-Naltrindole displacement); conditions: read-out: Ki [Average ± Std Deviation] Opioid Receptor Delta; recombinant receptor expressed in CHO-K1 cells
kappa opioid receptor [6] = target: T2, kappa opioid receptor; assay: In vitro kappa-opioid receptor [35S]GTPγS functional assay; type: biochemical; conditions: mean ± SEM; for EC50: read-out: GTPγS Opioid Receptor Kappa EC50

Row | Substance | GTPγS Opioid Receptor Mu Emax (μ-opioid receptor [1]) | EC50 (μ-opioid receptor [1]) | Ki (kappa opioid receptor [2]) | Ki (μ-opioid receptor [3]) | GTPγS ORL-1 Emax [4] | EC50 [4] | Ki [5] | Ki (delta opioid receptor) | GTPγS Opioid Receptor Kappa Emax (kappa opioid receptor [6]) | EC50 (kappa opioid receptor [6])
1 | 1-(2-(4-((endo)-8-cyclooctyl-8-azabicyclo[3.2.1]octan-3-yl)-3-oxo-3,4-dihydroquinoxalin-2-ylamino)ethyl)piperidine-4-carboxylic acid | 4.2% | 1080 nM | 568 nM | 713 nM | 38% | 337 nM | 34.7 nM | > 20000 nM | 9% | 2260 nM
2 | 2-(2-(4-((endo)-8-cyclooctyl-8-azabicyclo[3.2.1]octan-3-yl)-3-oxo-3,4-dihydroquinoxalin-2-ylamino)ethylamino)-3-hydroxypropanoic acid |  |  | 863 nM | 2530 nM | 53.7 ± 2.3% | 85 nM | 10.6 nM | > 20000 nM | 9.7 ± 1.8% | 4840 nM
3 | 2-(2-(4-((endo)-8-cyclooctyl-8-azabicyclo[3.2.1]octan-3-yl)-3-oxo-3,4-dihydroquinoxalin-2-ylamino)ethylamino)acetic acid |  |  | 707 nM | 3200 nM | 83% | 357 nM | 20.4 nM | > 100000 nM | 7.7 ± 0.3% | 4570 nM
4 | 2-(4-((endo)-8-cyclooctyl-8-azabicyclo[3.2.1]octan-3-yl)-3-oxo-3,4-dihydroquinoxaline-2-carboxamido)-3-phenylpropanoic acid | 8.9 ± 0.5% |  | 49.7 nM |  | 80.0 ± 1.7% | 199 nM | 11.5 nM | 1740 nM | 13.0 ± 2.3% | 3730 nM
5 | 2-(5-(4-((endo)-8-cyclooctyl-8-azabicyclo[3.2.1]octan-3-yl)-3-oxo-3,4-dihydroquinoxalin-2-yl)hexahydropyrrolo[3,4-c]pyrrol-2(1H)-yl)acetic acid |  |  | 134 nM | 2250 nM | 81 ± 3% | 397 nM | 15.8 nM | > 20000 nM | 0.3% | > 20000 nM
6 | 2-(((S)-1-(4-((endo)-8-cyclooctyl-8-azabicyclo[3.2.1]octan-3-yl)-3-oxo-3,4-dihydroquinoxalin-2-yl)pyrrolidin-3-yl)(methyl)amino)acetic acid |  |  | 223 nM | 8930 nM | 73.3 ± 3.7% | 618 nM | 21.5 nM | 72500 nM | 8.0 ± 1% | > 20000 nM
7 | 2-((S)-1-(4-((endo)-8-cyclooctyl-8-azabicyclo[3.2.1]octan-3-yl)-3-oxo-3,4-dihydroquinoxalin-2-yl)pyrrolidin-3-ylamino)acetic acid |  |  | 447 nM | 16900 nM | 59 ± 2% | 471 nM | 29.9 nM | > 20000 nM | 4.3 ± 1.3% | > 20000 nM
8 | 3-amino-1-(4-((endo)-8-cyclooctyl-8-azabicyclo[3.2.1]octan-3-yl)-3-oxo-3,4-dihydroquinoxalin-2-yl)pyrrolidine-3-carboxylic acid |  |  | 429 nM | 2810 nM | 83.3 ± 5.4% | 125 nM | 10.6 nM | > 20000 nM | 6.3 ± 0.9% | 3210 nM
9 | 4-((endo)-8-cyclooctyl-8-azabicyclo[3.2.1]octan-3-yl)-N-hydroxy-3-oxo-3,4-dihydroquinoxaline-2-carboxamide | 12.5 ± 1.4% |  | 480 nM |  | 127.0 ± 5.3% | 31.3 nM | 2.7 nM | > 100000 nM | 17% | 2450 nM
10 | 4-((exo)-8-cyclooctyl-8-azabicyclo[3.2.1]octan-3-yl)-N-(6-methoxypyridin-3-yl)-3-oxo-3,4-dihydroquinoxaline-2-carboxamide |  |  | 743 nM | 2700 nM | 110.5 ± 6.5% | 2350 nM | 128 nM | 13700 nM | 9.0 ± 1.2% | 3780 nM
11 | 4-acetamido-1-(4-((endo)-8-cyclooctyl-8-azabicyclo[3.2.1]octan-3-yl)-3-oxo-3,4-dihydroquinoxalin-2-yl)piperidine-4-carboxylic acid |  |  | 256 nM | 3920 nM | 46.7 ± 1.9% | 1760 nM | 158 nM | > 20000 nM | 0% | > 20000 nM
12 | 4-amino-1-(4-((endo)-8-cyclooctyl-8-azabicyclo[3.2.1]octan-3-yl)-3-oxo-3,4-dihydroquinoxalin-2-yl)piperidine-4-carboxylic acid |  |  | 224 nM | 6100 nM | 34.5 ± 1.6% | 94.4 nM | 11.1 nM | > 20000 nM | 13 ± 2.1% | 4730 nM
13 | (2R)-2-(4-((endo)-8-cyclooctyl-8-azabicyclo[3.2.1]octan-3-yl)-3-oxo-3,4-dihydroquinoxalin-2-ylamino)-3-hydroxypropanoic acid | 93% | 1060 nM |  | 770 nM | 35.3 ± 2.3% | 43.6 nM | 23.8 nM | 57700 nM | 18 ± 2% | 
14 | (5)-2-(4-((endo)-8-cyclooctyl-8-azabicyclo[3.2.1]octan-3-yl)-3-oxo-3,4-dihydroquinoxalin-2-ylamino)-2-phenylacetic acid |  |  | 346 nM | 1300 nM | 60% | 946 nM | 39.6 nM | > 20000 nM | 6.0 ± 1.5% | 1940 nM
15 | endo-4-(8-adamantan-1-yl-8-aza-bicyclo[3.2.1]oct-3-yl)-3-oxo-3,4-dihydro-quinoxaline-2-carboxylic acid hydrochloride | 23 ± 1% |  |  |  | 59.7 ± 0.3% | 40.6 nM | 11.9 nM |  |  | 
16 | endo-8-aza-bicyclo[3.2.1]oct-3-yl]-3-oxo-3,4-dihydro-quinoxaline-2-carboxylic acid | 6.6 ± 0.7% | 395 nM | 1430 nM | 679 nM | 80 ± 2.2% | 33.8 nM | 4.1 nM | > 20000 nM |  | 
17 | ethyl 4-((endo)-8-cyclooctyl-8-azabicyclo[3.2.1]octan-3-yl)-3-oxo-3,4-dihydroquinoxaline-2-carboxylate | 3.0 ± 0.4% | 643 nM | 66 nM | 459 nM | 58.3 ± 1.6% | 210 nM | 22.2 nM |  | 1.0 ± 2.0% | 667000 nM
